In this assay the test system is K562 cells. Nature of the assay: cells. The conditions noted are these: Homo sapiens, K562, 48 h, read-out: mean pIA50, reduction in OD570-OD600 (converted).

Data on one compound can be found in US20040072746A1, “Inhibitors of monocarboxylate transport” (priority 2001, published 2004).

Structures are written as SMILES.

As to `CC(C)Cn1c(=O)n(C)c(=O)c2c(SCCCO)c(Cc3cccc4ccccc34)sc21` [Ligand 1, 5-[(3-hydroxypropyl)thio]-3-methyl-1-(2-methylpropyl)-6-(1-napthalenylmethyl)thieno[2,3-d]pyrimidine-2,4(1H,3H)-dione], the IC50 was 2 nM.
